## Yeast mating assay 1: variants of the scFv Ab-14

Source: Engelhart et al. 2022 (doi:10.1038/s41597-022-01779-4), MIT Lincoln Laboratory and A-Alpha Bio; data file from the FLAb repository.

Target peptide (SARS-CoV-2 spike, HR2 region): PDVDLGDISGINAS

Each scFv is VH, a 15-residue (Gly4Ser)3 linker, VL, as in the parent Ab-14, and differs from it in the CDRs of the heavy chain only.
VH: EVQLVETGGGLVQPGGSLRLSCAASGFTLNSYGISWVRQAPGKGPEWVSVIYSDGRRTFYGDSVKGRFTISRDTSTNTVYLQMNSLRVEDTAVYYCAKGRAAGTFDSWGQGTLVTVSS
VL: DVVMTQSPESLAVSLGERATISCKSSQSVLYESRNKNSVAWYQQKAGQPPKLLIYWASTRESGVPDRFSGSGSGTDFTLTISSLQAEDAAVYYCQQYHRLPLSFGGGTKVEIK

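Variants in AAYL49 differ from the parent at up to three CDR positions; double and triple changes were sampled at random. The scFvs were displayed on barcoded MATa yeast, the peptide on MATalpha yeast. After mating in shaken culture at 30 °C for 16 h, diploids were selected and their barcode pairs sequenced. A regression on co-assayed BCL2-family reference pairs converts the normalised counts of each replicate to an apparent Kd. Mating was done three times.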

Variants are written as CDR1, CDR2 and CDR3 of the heavy chain (limits as in the source). Parent: GFTLNSYGIS, VIYSDGRRTFYGDSVK, GRAAGTFDS. The read-out is the apparent dissociation constant on a log10 scale (nM): the lower, the stronger. Where no diploid with the target was found in that replicate, the entry reads "nd": below detection, most likely a poor binder, though not proof of it. Empty control strains, which show no peptide, gave a signal in 15% of pairings with library AAYL49; the median was 4.06 and 95% of these signals were weaker than 2.83. No background was subtracted. For each scFv, signals with the empty controls are counted beside the result, with their mean in brackets. In this assay the parent's reference entry averaged 0.65; its copy inside this library read 4.11 (one replicate of three).

CDR-H1 | CDR-H2 | CDR-H3 | replicates, log10 nM | signal with controls
GFTLNSYGIS | WIYSDGRRTFYGDSVK | GRAACTVDS | nd / nd / nd | 1/9 (3.71)
GFTLNSYGIS | VIYSDGRRTFYGRSHK | GFAAGTFDS | 3.67 / nd / nd | 0/9
GFTLNSYGIS | VIYSDGTRTFGGDYVK | GRAAGTFDS | nd / nd / nd | 0/9
GTTLISYGIS | VIYSWGRRTFYGDSVK | GRAAGTFDS | nd / nd / nd | 0/9
GFTLNSYGIS | VIYSDGRRTFYGDSVM | GCAAGTFDG | nd / nd / nd | 0/9
GFTLNSYGIS | VIYIDGRRMFYGLSVK | GRAAGTFDS | nd / nd / nd | 0/9
GFTLNSYGIS | VIRSDGRRTFYGDSVK | GRAAKCFDS | nd / nd / 4.59 | 0/9
GFTENSYGIS | VIYSDGRLTFKGDSVK | GRAAGTFDS | nd / nd / nd | 1/9 (4.34)
GFTLNPYGIS | VIYSDGRRTFYGWSVK | GRAAGQFDS | nd / nd / nd | 0/9
GFTLNSDGIQ | VIYSDGRRTFYGDSVK | GRAAGTFDH | nd / nd / nd | 0/9
GFTLNSYIIS | VIYSDGRPAFYGDSVK | GRAAGTFDS | nd / nd / nd | 0/9
NFTLNSYGLS | VIYSDGRRNFYGDSVK | GRAAGTFDS | nd / nd / nd | 2/9 (3.81)
GFTLNSYGIS | VIYSCGRRTHYMDSVK | GRAAGTFDS | nd / nd / nd | 0/9
GFTLNSFGIS | VIYSNGRRTFYGDSVG | GRAAGTFDS | 4.00 / 5.49 / 4.03 | 3/9 (4.64)
GFTVNSYGIS | VFYSDGRRTFYGDSVY | GRAAGTFDS | nd / nd / nd | 0/9
GFTWNSYGIS | VIYSDGRRTFYGDSVK | GYAFGTFDS | nd / nd / nd | 0/9
GFTLNSYGIS | VIYSDGRRTFYGDSQK | GRAAPWFDS | nd / 3.53 / 4.52 | 1/9 (4.43)
GVYLNDYGIS | VIYSDGRRTFYGDSVK | GRAAGTFDS | 4.64 / 3.47 / nd | 2/9 (4.28)
GFTLDSYGIS | VIYSDQRRTFYGDSVK | GRAAGTFLS | nd / nd / 5.47 | 2/9 (4.05)
GFTLNSYGIS | VIYSDGRRIFYCDSVK | GRAAGTRDS | 3.25 / 3.45 / 3.43 | 4/9 (4.59)
GFTLNSYGIS | DIYSWGRRTFYGDSVK | GRAAGTFDS | nd / nd / nd | 2/9 (4.02)
GFTLNSYGCN | VIYSDGRRTFYGDSVK | GRAAGRFDS | nd / nd / nd | 1/9 (3.83)
GPTLNSYGLS | VIYSDGRRTFYGDSVK | GRALGTFDS | nd / nd / nd | 1/9 (2.91)
GFTLNSYGIS | VIYSDKRRTFYGDKVK | GRAVGTFDS | nd / nd / nd | 1/9 (4.05)
GFTLNSYGIS | VIYSDGRRTFYGDSVK | GRAAGHPVS | nd / nd / nd | 0/9
GFTLNSYGIS | VIYSDPRRTFYGDSGK | GRAAGTFDS | nd / nd / nd | 2/9 (4.03)
GPTLNSYGIS | VISSDGRRAFYGDSVK | GRAAGTFDS | 4.20 / 4.29 / nd | 1/9 (4.22)
GFTLNSYGQS | VIYSDGRNTFYGDSVK | SRAAGTFDS | nd / nd / nd | 0/9
GFTLNSYGCS | VIYSDGRRTFYADSVK | GRAAGDFDS | nd / nd / nd | 0/9
GFTLNSYGIS | VIYSDGRRTFLGDHVK | GRAAGTFDD | nd / 4.70 / 4.18 | 4/9 (3.98)
GFTLNHYGES | VIYSDGRRTFYGSSVK | GRAAGTFDS | nd / nd / nd | 1/9 (3.58)
GFTLNSYGIS | VIYSDGRRTFRGDSVK | GRAAGLRDS | nd / nd / nd | 3/9 (3.41)
GPTLNSYGIS | VFYSDGRATFYGDSVK | GRAAGTFDS | nd / nd / 3.69 | 2/9 (3.58)
GFTLNSYGPS | VIYSDGRRTAYGDMVK | GRAAGTFDS | nd / nd / nd | 3/9 (3.80)
GFILNQYGSS | VIYSDGRRTFYGDSVK | GRAAGTFDS | nd / 3.93 / nd | 0/9
GFTLNSTGIK | SIYSDGRRTFYGDSVK | GRAAGTFDS | 3.80 / 5.27 / nd | 5/9 (4.58)
GFTLNSYMIS | VIYSDGRRTFYNDSVK | GRAAGTFDG | nd / 4.68 / nd | 5/9 (4.01)
GFTFNSYGIS | VIYSDGRRTFYGDSVK | GRAAGTFKS | 2.78 / 3.72 / 2.61 | 0/9
GFTLNNYGIS | VIYSDGRRTFYADSVK | GCAAGTFDS | nd / nd / nd | 1/9 (3.57)